This passage reports EC50 results from patent publication US12441704B2, “Compounds active towards nuclear receptors” (NUEVOLUTION A/S, priority 2019, dated 2025).

Protein sequences, listed by entry. Tags and fused reporters are not part of them. Residues count along the entry.
UniProt P51449, 269-508 limits assumed: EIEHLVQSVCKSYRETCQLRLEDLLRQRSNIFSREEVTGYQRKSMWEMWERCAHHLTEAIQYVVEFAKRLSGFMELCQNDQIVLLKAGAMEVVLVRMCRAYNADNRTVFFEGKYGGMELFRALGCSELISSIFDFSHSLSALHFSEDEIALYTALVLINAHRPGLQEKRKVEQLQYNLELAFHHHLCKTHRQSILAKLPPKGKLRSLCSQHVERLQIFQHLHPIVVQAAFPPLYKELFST

As a reminder, the EC50 is the concentration needed to bring the measured effect to its halfway point.

This experiment addresses T1, RORγ ligand-binding domain fused to Gal4 (Homo sapiens, UniProt P51449).
T1 construct: Gal4 (galactose-responsive transcription factor); expressed in transfected cells; host or cells: HEK293
In words: RORγ Reporter Assay (Gal4). The format is cell-based. Here is the method:
The HEK293 cell line is co-transfected transiently with two plasmids, one with the RORγ ligand-binding domain fused to galactose-responsive transcription factor (Gal4), and the other with the luciferase reporter gene and Gal binding sites (UAS). This construction allows to determine the RORγ activity in a cellular system through the measurement of luminescence.
A suspension of RORγ reporter cells was dispensed into plates and cultured 2 h at 37° C. and 5% CO2. Media formulation consisted in DMEM/F-12 medium (Gibco) supplemented with 10% heat inactivated FBS (Sigma-Aldrich), non-essential aminoacids (Sigma-Aldrich), 2 mM Glutamax (Gibco) and 100 U/mL penicillin (Sigma-Aldrich). Dose-response curves with compounds were prepared in 100% DMSO and further diluted 100-fold in culture medium. Compound solutions were added to the plate containing cells (final DMSO concentration of 0.1%) and incubated for 24 h at 37° C. and 5% CO2. Luciferase detection reagent was added to each well, and relative light units (RLUs) were quantified from each assay well using a plate reading luminometer.
Values of average RLU±S.D. were computed for all treatment sets, followed by the calculations of percent-reduction of RORγ activity in response to respective test compound. The following formula was used: activity=100*[1−[x test compound/average vehicle] where the theoretical minimum reduction (0% reduction).

[1] abbreviates: HEK293 cells co-transfected with RORγ LBD-Gal4 and luciferase reporter, 24 h incubation, absolute EC50, read-out: EC50.

Where two headings read alike, the source gives them in different places.

For the compound `CC1(N(Cc2ccc(C(F)(F)F)cc2)c2ncnc(NC[C@@H]3CCN(CC(N)=O)C[C@H]3O)c2F)CC1` (racemic) [Example A7-41, rac-2-((3R,4R)-4-(((5-fluoro-6-((1-methylcyclopropyl)(4-(trifluoromethyl)benzyl)amino)pyrimidin-4-yl)amino)methyl)-3-hydroxypiperidin-1-yl)acetamide], under setting [1], the EC50 turned out to be 0.027 µM. On the same count and under the same terms, next, `NC(=O)CN1CCC(CNc2ncnc(N(Cc3ccc(C(F)(F)F)cc3)C3CC3)c2F)C(C(F)(F)F)C1` (single isomer, unassigned) [Example A7-07-3, 2-(4-(((6-(cyclopropyl(4-(trifluoromethyl)benzyl)amino)-5-fluoropyrimidin-4-yl)amino)methyl)-3-(trifluoromethyl)piperidin-1-yl)acetamide]: 0.021 µM.

With `NC(=O)CN1CCC(CNc2ncnc(N(Cc3ccc(C(F)(F)F)cc3)C3CC3)c2F)C(F)(F)C1` (single isomer, unassigned) [Example A7-06-2], the EC50 (compounds of the present disclosure, source: Table 2 herein, read-out: Gal4 assay EC50) was under 0.1 µM.

Take `CCN(Cc1ccc(C(F)(F)F)cc1F)c1ncnc(NC[C@@H]2CCN(CC(N)=O)C[C@H]2O)c1F` (single isomer, unassigned) [Example A7-26-1]: the EC50 under setting [1] worked out at 0.027 µM.
